Source: patent US7674471B2, “Topical composition, topical composition precursor, and methods for manufacturing and using” (Skinvisible Pharmaceuticals, Inc., priority 2001, dated 2010)

Experiments:
[1] = solubility in water or solvents
From the text: In addition, β-cyclodextrin is a relatively small molecule with all of its —OH groups lying on the outside of the molecule. If all of the —OH groups formed complexes with pyrrolidone groups, none would be available to promote water solubility.

[2] = in vivo; cited from earlier work

Row | Substance | solubility in water [1] | dermal toxicity [2]
1 | Poly(vinylpyrrolidone/1-eicosene) [PVPE] | highly insoluble in water | no demonstrable dermal toxicity
2 | Poly(vinylpyrrolidone/1-hexadecene) [PVPH] | insoluble in water | no demonstrable dermal toxicity
